Chains of the proteins cited; added tags and fusions are not shown. Lines headed by an entry give the natural chain unless they say otherwise; changes in a name come on top.
UniProt O60674: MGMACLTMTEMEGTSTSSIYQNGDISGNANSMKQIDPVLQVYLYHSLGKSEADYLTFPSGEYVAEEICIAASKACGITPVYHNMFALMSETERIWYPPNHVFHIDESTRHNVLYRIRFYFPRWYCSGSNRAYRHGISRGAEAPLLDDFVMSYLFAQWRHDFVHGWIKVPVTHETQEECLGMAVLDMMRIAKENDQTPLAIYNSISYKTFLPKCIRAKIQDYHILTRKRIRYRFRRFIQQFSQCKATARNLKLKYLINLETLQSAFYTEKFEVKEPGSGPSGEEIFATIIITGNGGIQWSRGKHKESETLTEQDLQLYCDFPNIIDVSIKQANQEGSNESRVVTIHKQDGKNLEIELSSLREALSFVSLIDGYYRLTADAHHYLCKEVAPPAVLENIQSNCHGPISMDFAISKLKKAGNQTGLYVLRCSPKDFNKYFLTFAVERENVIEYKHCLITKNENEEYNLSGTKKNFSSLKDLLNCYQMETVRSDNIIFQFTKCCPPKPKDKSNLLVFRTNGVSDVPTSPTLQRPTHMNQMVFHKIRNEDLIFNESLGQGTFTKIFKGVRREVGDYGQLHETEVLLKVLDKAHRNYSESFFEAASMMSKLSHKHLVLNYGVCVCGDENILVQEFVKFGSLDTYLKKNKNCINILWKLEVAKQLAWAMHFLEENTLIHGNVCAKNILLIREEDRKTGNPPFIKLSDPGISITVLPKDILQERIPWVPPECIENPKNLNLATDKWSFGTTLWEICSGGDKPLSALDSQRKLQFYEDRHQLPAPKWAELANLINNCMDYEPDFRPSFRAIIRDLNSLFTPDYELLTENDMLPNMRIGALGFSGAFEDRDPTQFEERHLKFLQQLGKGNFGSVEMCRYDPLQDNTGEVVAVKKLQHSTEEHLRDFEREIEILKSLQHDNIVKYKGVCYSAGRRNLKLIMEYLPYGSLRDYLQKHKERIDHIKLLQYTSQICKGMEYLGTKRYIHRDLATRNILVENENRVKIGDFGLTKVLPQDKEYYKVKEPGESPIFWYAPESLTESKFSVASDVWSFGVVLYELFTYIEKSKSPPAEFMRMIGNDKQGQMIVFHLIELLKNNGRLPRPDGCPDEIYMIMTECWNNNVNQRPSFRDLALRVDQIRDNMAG
UniProt Q9UHD2: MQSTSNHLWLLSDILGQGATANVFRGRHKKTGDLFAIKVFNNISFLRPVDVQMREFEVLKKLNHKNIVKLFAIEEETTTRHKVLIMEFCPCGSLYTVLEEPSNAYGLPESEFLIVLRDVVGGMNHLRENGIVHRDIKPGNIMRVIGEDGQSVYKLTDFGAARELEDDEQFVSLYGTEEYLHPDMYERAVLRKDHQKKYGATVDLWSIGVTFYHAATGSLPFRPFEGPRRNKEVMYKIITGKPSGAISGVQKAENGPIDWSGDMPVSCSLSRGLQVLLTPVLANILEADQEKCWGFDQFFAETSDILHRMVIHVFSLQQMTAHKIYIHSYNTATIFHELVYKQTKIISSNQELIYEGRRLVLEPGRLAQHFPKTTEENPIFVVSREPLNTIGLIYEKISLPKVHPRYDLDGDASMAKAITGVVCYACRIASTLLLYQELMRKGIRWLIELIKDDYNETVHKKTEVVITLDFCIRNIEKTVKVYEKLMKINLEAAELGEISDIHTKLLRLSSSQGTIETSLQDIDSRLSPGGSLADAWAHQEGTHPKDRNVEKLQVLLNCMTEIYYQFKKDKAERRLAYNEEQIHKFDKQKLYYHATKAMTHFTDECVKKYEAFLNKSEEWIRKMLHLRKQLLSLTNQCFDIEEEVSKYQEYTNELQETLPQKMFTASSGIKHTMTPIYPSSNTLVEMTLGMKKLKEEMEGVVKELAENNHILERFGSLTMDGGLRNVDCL
UniProt Q14164: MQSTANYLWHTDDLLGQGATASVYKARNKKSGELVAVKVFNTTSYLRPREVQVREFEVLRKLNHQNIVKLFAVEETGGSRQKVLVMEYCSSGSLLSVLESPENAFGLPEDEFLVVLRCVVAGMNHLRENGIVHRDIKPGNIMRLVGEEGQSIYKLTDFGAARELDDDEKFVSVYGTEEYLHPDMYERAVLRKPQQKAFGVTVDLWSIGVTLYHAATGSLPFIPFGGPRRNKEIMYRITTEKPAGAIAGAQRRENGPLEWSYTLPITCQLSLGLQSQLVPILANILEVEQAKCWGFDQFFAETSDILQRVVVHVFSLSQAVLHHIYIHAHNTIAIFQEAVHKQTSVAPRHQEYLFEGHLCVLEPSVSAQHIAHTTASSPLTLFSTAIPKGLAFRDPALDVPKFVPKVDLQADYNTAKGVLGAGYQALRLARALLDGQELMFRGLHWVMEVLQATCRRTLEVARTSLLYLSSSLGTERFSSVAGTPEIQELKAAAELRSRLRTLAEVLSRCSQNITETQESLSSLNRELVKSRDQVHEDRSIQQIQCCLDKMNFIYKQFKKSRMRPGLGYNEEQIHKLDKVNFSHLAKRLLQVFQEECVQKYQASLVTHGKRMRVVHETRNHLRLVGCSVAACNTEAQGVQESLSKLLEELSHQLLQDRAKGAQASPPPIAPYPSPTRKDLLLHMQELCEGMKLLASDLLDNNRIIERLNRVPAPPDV

According to patent US10040781B2, “Tank-binding kinase inhibitor compounds” (Gilead Sciences, Inc., priority 2014, dated 2018):

Tests used:
[1] = target: hJAK2 (Homo sapiens (Human), UniProt O60674); assay: hJAK2 LANCE TR-FRET enzymatic assay; assay type: biochemical; settings: read-out: JAK2 IC50
[2] = target: TBK1 (Homo sapiens (Human), UniProt Q9UHD2); assay: TBK1 TR-FRET enzymatic assay;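 further: phosphorylation of a biotinylated Ser/Thr peptide by purified full-length recombinant TBK1, read by TR-FRET after 240 min at 25 °C, IC50 is the geometric mean of at least four runs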
[3] = target: IKKε (Homo sapiens (Human), UniProt Q14164); assay: IKKε TR-FRET enzymatic assay; assay type: biochemical; settings: read-out: IKKe IC50

IC50 [1] [µM] | IC50 [2] [µM] | IC50 [3] [µM] | SMILES
0.258 | 0.002 |  | N#Cc1cc(-c2ncnc(Nc3ccc(N4CCO[C@@H](CO)C4)cc3)n2)ccc1OC1CCOCC1 [Example 107, (R)-5-(4-((4-(2-(hydroxymethyl)morpholino)phenyl)amino)-1,3,5-triazin-2-yl)-2-((tetrahydro-2H-pyran-4-yl)oxy)benzonitrile]
0.66 |  |  | COC(=O)N1CC[C@@H](Oc2ccc(-c3ncnc(Nc4ccc(N5CCN(C6COC6)CC5)cc4)n3)cc2C#N)C1 [Example 2, (R)-methyl 3-(2-cyano-4-(4-((4-(4-(oxetan-3-yl)piperazin-1-yl)phenyl)amino)-1,3,5-triazin-2-yl)phenoxy)pyrrolidine-1-carboxylate]
0.415 |  | 0.002 | N#Cc1cc(-c2ncnc(Nc3ccc(C4CCNCC4)cc3)n2)ccc1O[C@H]1CCCC[C@H]1F (racemic) [Example 292, rac-2-(((1S,2R)-2-fluorocyclohexyl)oxy)-5-(4-((4-(piperidin-4-yl)phenyl)amino)-1,3,5-triazin-2-yl)benzonitrile]
≥ 1 |  |  | C[C@H]1C[C@H](Oc2ccc(-c3ncnc(Nc4ccc(N5CCN(C6COC6)CC5)cc4)n3)cc2C#N)[C@H](F)CN1C(=O)[C@H]1CCC(=O)N1 [Example 411, 2-(((2S,4S,5R)-5-fluoro-2-methyl-1-((R)-5-oxopyrrolidine-2-carbonyl)piperidin-4-yl)oxy)-5-(4-((4-(4-(oxetan-3-yl)piperazin-1-yl)phenyl)amino)-1,3,5-triazin-2-yl)benzonitrile]
